From patent US10028956B2, “Methods of treating various cancers using an AXL/cMET inhibitor in combination with other agents” (Ignyta, Inc., priority 2013, dated 2018)

Sequences of proteins named here, by UniProt entry; tags and fusion partners are left off. Residues count along the entry.
UniProt P08581, 25-1390: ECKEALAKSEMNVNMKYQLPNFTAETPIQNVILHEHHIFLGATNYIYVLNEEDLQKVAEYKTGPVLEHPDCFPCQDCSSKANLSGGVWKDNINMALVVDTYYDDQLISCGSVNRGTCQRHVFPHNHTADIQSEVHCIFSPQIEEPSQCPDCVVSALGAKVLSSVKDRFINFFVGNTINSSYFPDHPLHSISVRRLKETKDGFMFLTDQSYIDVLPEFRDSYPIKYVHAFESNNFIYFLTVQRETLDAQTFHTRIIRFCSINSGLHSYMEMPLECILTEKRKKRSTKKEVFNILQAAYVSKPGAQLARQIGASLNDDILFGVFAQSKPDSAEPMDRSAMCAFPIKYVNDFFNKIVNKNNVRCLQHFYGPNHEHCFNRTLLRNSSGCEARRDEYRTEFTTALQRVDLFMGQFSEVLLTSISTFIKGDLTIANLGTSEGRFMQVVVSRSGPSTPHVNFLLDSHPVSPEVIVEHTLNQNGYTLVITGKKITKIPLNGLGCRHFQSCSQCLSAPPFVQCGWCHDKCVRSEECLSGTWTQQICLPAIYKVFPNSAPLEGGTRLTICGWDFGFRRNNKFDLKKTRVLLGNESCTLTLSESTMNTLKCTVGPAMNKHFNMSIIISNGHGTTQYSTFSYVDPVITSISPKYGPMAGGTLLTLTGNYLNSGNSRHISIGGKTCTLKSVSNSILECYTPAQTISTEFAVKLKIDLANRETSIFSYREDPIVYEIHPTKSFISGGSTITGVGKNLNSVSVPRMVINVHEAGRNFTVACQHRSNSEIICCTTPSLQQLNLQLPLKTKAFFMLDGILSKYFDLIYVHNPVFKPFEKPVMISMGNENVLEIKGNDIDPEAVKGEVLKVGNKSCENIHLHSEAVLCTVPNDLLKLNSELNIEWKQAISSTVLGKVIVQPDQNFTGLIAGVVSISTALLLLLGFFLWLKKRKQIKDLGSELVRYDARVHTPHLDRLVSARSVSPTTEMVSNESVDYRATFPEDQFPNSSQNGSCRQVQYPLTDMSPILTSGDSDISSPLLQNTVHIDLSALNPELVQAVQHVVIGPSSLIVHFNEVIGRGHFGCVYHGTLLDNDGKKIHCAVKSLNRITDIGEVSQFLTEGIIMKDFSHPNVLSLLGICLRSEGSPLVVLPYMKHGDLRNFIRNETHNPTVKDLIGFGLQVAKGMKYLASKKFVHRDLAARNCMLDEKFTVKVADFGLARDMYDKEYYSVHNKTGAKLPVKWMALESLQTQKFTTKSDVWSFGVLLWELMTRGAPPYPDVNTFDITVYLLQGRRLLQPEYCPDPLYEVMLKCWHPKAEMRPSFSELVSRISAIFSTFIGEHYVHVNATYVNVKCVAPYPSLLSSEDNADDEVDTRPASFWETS

How the values were obtained:
AXL [1] = target: T1, AXL (Homo sapiens, UniProt P30530); assay: Cellular AXL inhibition in AXL-transfected 293GT cells; type: cell-based; conditions: AXL-transfected 293GT cells vs recombinant enzyme
T1 sequence (P30530 26-894): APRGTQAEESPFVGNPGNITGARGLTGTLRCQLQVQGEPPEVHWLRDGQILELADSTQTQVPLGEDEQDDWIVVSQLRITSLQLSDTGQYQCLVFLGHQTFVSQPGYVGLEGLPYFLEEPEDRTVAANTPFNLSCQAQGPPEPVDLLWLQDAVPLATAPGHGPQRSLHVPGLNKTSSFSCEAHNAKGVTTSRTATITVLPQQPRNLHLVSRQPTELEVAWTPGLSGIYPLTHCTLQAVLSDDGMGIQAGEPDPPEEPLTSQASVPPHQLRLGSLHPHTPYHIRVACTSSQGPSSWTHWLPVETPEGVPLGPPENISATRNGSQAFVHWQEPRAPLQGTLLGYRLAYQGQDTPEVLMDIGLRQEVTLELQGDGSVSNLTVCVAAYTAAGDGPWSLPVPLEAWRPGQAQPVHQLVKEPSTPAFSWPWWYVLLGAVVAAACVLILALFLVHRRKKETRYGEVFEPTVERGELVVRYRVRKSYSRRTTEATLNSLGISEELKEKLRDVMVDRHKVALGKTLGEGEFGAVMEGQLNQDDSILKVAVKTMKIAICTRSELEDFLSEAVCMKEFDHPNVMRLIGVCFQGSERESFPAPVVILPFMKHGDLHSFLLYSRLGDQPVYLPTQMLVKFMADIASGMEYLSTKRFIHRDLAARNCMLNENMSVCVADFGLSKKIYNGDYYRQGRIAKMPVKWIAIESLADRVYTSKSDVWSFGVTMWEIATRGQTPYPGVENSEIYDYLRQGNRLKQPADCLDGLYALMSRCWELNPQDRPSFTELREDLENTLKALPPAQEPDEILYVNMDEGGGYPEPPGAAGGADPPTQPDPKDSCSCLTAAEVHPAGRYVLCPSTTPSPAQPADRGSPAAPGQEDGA

AXL [2] = target: T1, AXL; conditions: from time t0 to tmax
c-Met = c-Met (Homo sapiens, UniProt P08581); conditions: time-dependent inhibition

COc1cc2nccc(Oc3ccc(NC(=O)c4cn(C(C)C)c(=O)n(-c5ccc(F)cc5)c4=O)cc3F)c2cc1OC [CEP-40783, 3-(4-Fluorophenyl)-1-isopropyl-2,4-dioxo-1,2,3,4-tetrahydropyrimidine-5-carboxylic acid [4-(6,7-dimethoxyquinolin-4-yloxy)-3-fluorophenyl]-amide]
fold more active in cells compared to recombinant enzyme (AXL [1]): 27 fold | fold shift in the IC50 value, AXL (AXL [2]): 35 fold | fold shift in the IC50, c-Met (c-Met): 38 fold
